The results in this text go back to patent publication US20200010910A1, “Cytotoxic Chemotherapy-Based Predictive Assays for Acute Myeloid Leukemia” (The Regents of The University of California, priority 2017, published 2020).

For data set [1] the following is noted: sterile solution in water, upon freezing.
Data set [2] in a line: safety of radiolabeled microdose in patients. The note with it: IV microdose, 1% of the therapeutic dose.

With `O=C1[O][Pt]2([NH][C@@H]3CCCC[C@H]3[NH]2)[O]C1=O` [oxaliplatin], the stability to freeze/thaw entry in data set [1] is “no observed precipitation”. Besides, in data set [2], the “tolerability of radiolabeled microdose” value is given as “well tolerated”.
